Measurements as given in PubChem BioAssay AID588456 (National Center for Advancing Translational Sciences (NCATS), 2011).
This is a selection; strong and weak results do not stand in their true shares. Activity calls are given as the source filed them. Calls come from the whole dose curve; as a rule, active = well fitted inhibition curve with a large enough effect; inconclusive = small, poorly fitted or top-dose-only effect; inactive = no such curve, though single readings can be large or run the other way.

The chains behind the UniProt entries cited, without tags or fusion partners.
UniProt O89049, whole entry: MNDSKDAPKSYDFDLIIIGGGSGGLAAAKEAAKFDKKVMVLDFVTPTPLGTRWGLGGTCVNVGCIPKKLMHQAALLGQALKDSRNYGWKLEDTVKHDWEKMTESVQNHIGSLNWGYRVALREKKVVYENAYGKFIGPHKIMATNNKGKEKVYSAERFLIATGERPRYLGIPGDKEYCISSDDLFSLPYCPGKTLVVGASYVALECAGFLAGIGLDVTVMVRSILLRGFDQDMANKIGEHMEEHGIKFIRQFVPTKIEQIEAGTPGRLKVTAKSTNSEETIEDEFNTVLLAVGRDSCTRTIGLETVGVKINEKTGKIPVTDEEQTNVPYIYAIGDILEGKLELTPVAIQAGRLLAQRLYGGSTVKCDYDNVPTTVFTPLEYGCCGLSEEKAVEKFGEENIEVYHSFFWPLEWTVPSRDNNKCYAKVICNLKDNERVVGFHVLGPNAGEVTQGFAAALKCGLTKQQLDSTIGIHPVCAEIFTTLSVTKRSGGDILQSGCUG

Target: Thioredoxin reductase 1, cytoplasmic (Rattus norvegicus) (UniProt O89049)
Experiment: qHTS Assay for Substrates of Mammalian Selenoprotein Thioredoxin Reductase 1 (TrxR1): qHTS; note: nearly all actives have a fitted effect of over 50% in size
Conditions: purified TrxR1 substrate turnover, NADPH consumption readout; at 114 µM (top of the series) unless noted
% is set by controls: 0 for no effect and ±100 for the full control effect.

SMILES	activity change, negative = substrate turnover
CC1=NCCc2c1[nH]c1ccccc21.O=[N+]([O-])c1cc([N+](=O)[O-])c(O)c([N+](=O)[O-])c1	inactive: 0.862%
Cc1ccc(C)c(NP(C)(=O)Oc2ccccc2)c1 (stereo not given)	inactive: -9.04%
CP(=O)(Nc1cccc(Br)c1)Oc1ccccc1 (stereo not given)	inactive: -5.8%
Cc1cc(C)cc(OP(C)(=O)Nc2ccccn2)c1 (stereo not given)	inactive: 9.58%
COc1ccccc1OP(C)(=O)Nc1cccc(Br)c1 (stereo not given)	inactive: 1.52%
CCOC(=O)c1ccc(NP(C)(=O)Oc2cc(C)cc(C)c2)cc1 (stereo not given)	inactive: -8.8%
Cc1cc(C)cc(OP(C)(=O)Nc2ccc(C)cc2C)c1 (stereo not given)	inactive: 9.38% [at 57.1 µM]
O=[N+]([O-])c1cc([N+](=O)[O-])c(-c2cnn(-c3ccccc3)c2)c([N+](=O)[O-])c1	inactive: 2.57% [at 57.1 µM]
Cc1nc2ccc3ccccc3c2s1.O=[N+]([O-])c1cc([N+](=O)[O-])c(O)c([N+](=O)[O-])c1	inactive: -9.28% [at 57.1 µM]
CN1CCCCC1COC(=O)C1(O)c2ccccc2CCc2ccccc21 (stereo not given)	inactive: 1.39% [at 0.0914 µM]
COc1ccccc1OP(C)(=O)Nc1c(C)cccc1C (stereo not given)	inactive: -10.5%
CP(=O)(Nc1ccc(SC(F)(F)F)cc1)Oc1ccccc1 (stereo not given)	inactive: -1.11%
CCCOc1ccc(NP(C)(=O)Oc2ccc(Cl)cc2)cc1 (stereo not given)	inactive: -6.68%
O=[N+]([O-])c1cc([N+](=O)[O-])c(Nc2nnnn2CCO)c([N+](=O)[O-])c1	inactive: -11.8% [at 57.1 µM]
CC1=C2N=C(C=C3N=C(C(C)=C4[N-][C@@](C)([C@@H]5N=C1[C@](C)(CCC(=O)NC[C@@H](C)OP(=O)([O-])O[C@H]1[C@@H](O)[C@@H](n6cnc7cc(C)c(C)cc76)O[C@@H]1CO)[C@H]5CC(N)=O)[C@@](C)(CC(N)=O)[C@@H]4CCC(N)=O)[C@@](C)(CC(N)=O)[C@@H]3CCC(N)=O)C(C)(C)[C@@H]2CCC(N)=O.[C-]#N.[Co+3]	inactive: -9.72%
CP(=S)(Nn1cnnc1)Oc1ccccc1 (stereo not given)	inactive: 2.55% [at 57.1 µM]
CP(=O)(Nc1ccccc1Br)Oc1ccccc1 (stereo not given)	inactive: 11.7% [at 57.1 µM]
COc1ccccc1OP(C)(=O)Nc1ccccc1 (stereo not given)	inactive: -4.75%
O=[N+]([O-])c1cc([N+](=O)[O-])c(O)c([N+](=O)[O-])c1.c1ccc(Oc2ccncc2)cc1	inactive: -10.9% [at 57.1 µM]
CCOC(=O)c1ccc(NP(C)(=O)Oc2ccc(OC)cc2)cc1 (stereo not given)	inactive: -0.794%
CCOP(C)(=S)SCC(=O)NC(C)C(=O)O (stereo not given)	inactive: 7.17%
CP(=O)(Nc1ccccn1)Oc1ccc(Cl)cc1 (stereo not given)	inactive: 3.08%
CP(=O)(Oc1ccccc1)OC(c1ccccc1)C(F)(F)F (stereo not given)	inactive: 2.54%
CP(=O)(Nc1ccc(SC(F)(F)F)cc1)Oc1ccc(Cl)cc1 (stereo not given)	inactive: -16.8%
Cc1cccc(C)c1OP(C)(=O)Nc1ccc(SC(F)(F)F)cc1 (stereo not given)	inactive: -7.11% [at 57.1 µM]
Cc1cc(C)cc(OP(C)(=O)Nc2ccc(SC(F)(F)F)cc2)c1 (stereo not given)	inactive: -6.02% [at 57.1 µM]
CCc1ccc(OP(C)(=O)N2CCN(c3ccc([N+](=O)[O-])cc3)CC2)cc1 (stereo not given)	inactive: -13.3%
CP(=O)(NC(=O)Nc1ccccc1)Oc1ccccc1 (stereo not given)	inactive: 12%

SMILES	activity change, negative = substrate turnover
CCN(CC)CCCOC(=O)C(O)(c1ccccc1)c1ccccc1	inactive: 1.74%
Cc1ccc(NP(C)(=O)Oc2ccccc2)c(C)c1 (stereo not given)	inactive: 8.36% [at 57.1 µM]
COc1ccccc1OP(C)(=O)Nc1ccc(C)cc1 (stereo not given)	inactive: -0.793%
CCOC(=O)c1ccc(NP(C)(=O)Oc2ccccc2)cc1 (stereo not given)	inactive: -0.409%
Cc1cc(C)cc(OP(C)(N)=O)c1 (stereo not given)	inactive: 3.87% [at 57.1 µM]
COc1ccc(OP(C)(=O)Nc2cccc(F)c2)cc1 (stereo not given)	inactive: -8.34% [at 57.1 µM]
COc1ccccc1OP(C)(=O)Nc1cc(Cl)ccc1C (stereo not given)	inactive: 9.93% [at 57.1 µM]
O=[N+]([O-])c1cc([N+](=O)[O-])c(Nc2cccnc2)c([N+](=O)[O-])c1	inactive: -17.6%
O=[N+]([O-])c1ccc2c(c1)C=Nc1ccccc1O2	inactive: -5.92%
Cc1cccc(C)c1OP(C)(N)=O (stereo not given)	inactive: 1.77% [at 57.1 µM]
CP(=O)(OCCOc1ccccc1)OCCOc1ccccc1	inactive: -2.57%
CCCCCCCCCCCCCCCC1C[N+](C)(C)CCOP(C)(=O)O1 (stereo not given)	inactive: 6.51% [at 57.1 µM]
CP(=O)(Nc1ccc(Cl)cc1Cl)Oc1ccccc1 (stereo not given)	inactive: -2.33%
Cc1cc(C)cc(OP(C)(=O)Nc2cccc(C(F)(F)F)c2)c1 (stereo not given)	inactive: -13.9%
COc1ccccc1OP(C)(=O)Nc1ccc(C)c(C)c1 (stereo not given)	inactive: -12.3%
COc1ccc(OP(C)(=O)Nc2ccccc2Br)cc1 (stereo not given)	inactive: 1.92%
O=[N+]([O-])c1cc([N+](=O)[O-])c(Nc2ccccn2)c([N+](=O)[O-])c1	inactive: -3.83% [at 57.1 µM]
Cc1c(NP(C)(=O)Oc2ccc(C(C)C)cc2)c(=O)n(-c2ccccc2)n1C (stereo not given)	inactive: 10.7% [at 57.1 µM]
COc1ccccc1OP(C)(=O)Nc1ccc(C)cc1C (stereo not given)	inactive: 16.8% [at 57.1 µM]
CP(=O)(Nc1ccccn1)Oc1ccccc1 (stereo not given)	inactive: -7.17%
CCc1ccc(OP(C)(=O)O)cc1	inactive: -1.18%
COc1ccccc1OP(C)(=O)Nc1ccc(Br)cc1 (stereo not given)	inactive: 2.1%
COc1ccc(OP(C)(=O)Nc2ccccn2)cc1 (stereo not given)	inactive: -3.79%
CN(C)CCOC(=O)C(O)(c1ccccc1)C1CCCC1 (stereo not given)	inactive: 2.22%
CC(C)(C)c1ccc(OP(C)(=O)O)cc1	inactive: 6.92%
COc1ccccc1OP(C)(=O)Nc1ccccc1Br (stereo not given)	inactive: -2.57%
CP(=O)(Nc1ccc(Cl)cc1)Oc1ccc(F)cc1 (stereo not given)	inactive: -2.86%
